Patent US4689345A, “Oxygenated alkyl substituted bicyclo alkanes” (CBD Corporation, priority 1986, dated 1987)

Biological target: T1, progesterone receptor (keloid cytosol) (Homo sapiens, UniProt P06401)
T1 construct: [3H]promegestone (R5020) tracer
T1 sequence (P06401 1-933): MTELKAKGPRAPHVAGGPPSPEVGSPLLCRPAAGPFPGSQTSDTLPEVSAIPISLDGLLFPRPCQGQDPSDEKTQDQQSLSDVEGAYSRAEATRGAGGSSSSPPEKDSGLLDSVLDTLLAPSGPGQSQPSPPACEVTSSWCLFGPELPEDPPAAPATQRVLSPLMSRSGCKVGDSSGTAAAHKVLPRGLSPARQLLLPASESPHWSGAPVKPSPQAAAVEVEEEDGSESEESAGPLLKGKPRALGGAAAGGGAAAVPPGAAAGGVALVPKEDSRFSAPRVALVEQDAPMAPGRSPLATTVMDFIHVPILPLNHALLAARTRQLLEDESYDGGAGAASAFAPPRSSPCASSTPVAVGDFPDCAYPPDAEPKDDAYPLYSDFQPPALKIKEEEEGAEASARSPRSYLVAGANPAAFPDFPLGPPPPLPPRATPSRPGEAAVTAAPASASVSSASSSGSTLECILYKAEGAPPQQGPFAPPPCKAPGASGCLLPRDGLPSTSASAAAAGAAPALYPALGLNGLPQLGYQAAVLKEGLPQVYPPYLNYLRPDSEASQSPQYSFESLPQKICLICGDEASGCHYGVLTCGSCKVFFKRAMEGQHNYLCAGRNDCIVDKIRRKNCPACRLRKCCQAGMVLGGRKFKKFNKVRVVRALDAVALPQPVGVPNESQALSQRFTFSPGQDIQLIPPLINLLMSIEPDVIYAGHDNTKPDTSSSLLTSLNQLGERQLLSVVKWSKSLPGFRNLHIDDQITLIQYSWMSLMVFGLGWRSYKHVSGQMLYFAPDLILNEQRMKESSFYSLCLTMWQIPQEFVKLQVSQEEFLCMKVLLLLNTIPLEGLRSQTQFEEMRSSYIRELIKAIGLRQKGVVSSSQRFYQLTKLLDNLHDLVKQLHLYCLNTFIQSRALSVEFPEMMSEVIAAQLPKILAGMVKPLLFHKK
Test: Keloid cytosol steroid binding assay, progesterone

## CC(=O)[C@H]1CC[C@H]2[C@@H]3CCC4=CC(=O)CC[C@]4(C)[C@H]3CC[C@]12C [Progesterone]
Male patients
  progesterone binding, male patients: neither detectable
Patient 1
  Binding of Progesterone: 7
